# Results: PubChem BioAssay AID1918 (Vanderbilt High Throughput Screening Facility, 2009)
# The chains behind the UniProt entries cited, without tags or fusion partners. Where a name states a change or a piece, a line headed by the entry shows the natural chain unless it says otherwise.
# UniProt P48048: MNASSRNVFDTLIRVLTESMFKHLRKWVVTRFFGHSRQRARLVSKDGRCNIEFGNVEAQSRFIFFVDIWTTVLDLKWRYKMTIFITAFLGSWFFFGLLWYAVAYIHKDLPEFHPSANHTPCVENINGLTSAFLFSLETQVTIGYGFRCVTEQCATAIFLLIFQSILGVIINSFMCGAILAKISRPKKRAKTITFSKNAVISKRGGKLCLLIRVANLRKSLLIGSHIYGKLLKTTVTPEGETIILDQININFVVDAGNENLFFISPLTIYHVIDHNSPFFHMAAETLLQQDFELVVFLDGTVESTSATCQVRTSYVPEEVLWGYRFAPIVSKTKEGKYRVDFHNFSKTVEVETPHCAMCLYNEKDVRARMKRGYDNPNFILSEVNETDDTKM
# The entries are a selection whose mix differs from that of the whole data set. Active and inactive are the calls of the source.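 How the source made its calls: active means signal ratio slope over the read window, or its plate-corrected B-score, at least 3 SD from the plate mean, either direction; inactive means the rest.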
# Biological target: ATP-sensitive inward rectifier potassium channel 1 (Homo sapiens) (UniProt P48048)
# Test: ROMK potassium channel modulators, primary screen, cell-based, thallium flux, MLSMR library (AID 1918);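 further: B-score of the F/F0 ratio slope over 7 to 12 s after thallium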
# Conditions: Tet-inducible ROMK, thallium flux fluorescence; at 10 µM; actives lie on both sides
row,SMILES,B-score
1,CCOC(=O)NC(Sc1ccccc1)C(Cl)(Cl)Cl (configuration not stated),inactive: -0.43
2,Cc1ccc(NP(=O)(Oc2cccc(C)c2)Oc2cccc(C)c2)nc1,inactive: -0.823
3,c1ccc(-c2nn[nH]n2)c(-c2nn[nH]n2)c1,inactive: 0.979
4,O=C(NC1CCS(=O)(=O)C1)NP(=S)(Oc1ccccc1)Oc1ccccc1 (configuration not stated),inactive: -1.15
5,CCNC(=S)/N=C(\N)N[N+](=O)[O-],inactive: -0.0599
6,CC(=O)Nc1ccc(Oc2c([N+](=O)[O-])cc([N+](=O)[O-])cc2[N+](=O)[O-])cc1,inactive: 1.46
7,CC(C)(C)C(=O)NC(Sc1ccccc1)C(Cl)(Cl)Cl (configuration not stated),inactive: -0.289
8,CCOc1ccc(C2=NCC(CBr)S2)cc1 (configuration not stated),inactive: 0.000355
9,O=P1(Nc2nc3ccc(Cl)cc3s2)COc2ccccc2O1 (configuration not stated),inactive: 0.213
10,CCOP(=O)(Nc1cccc2ccccc12)OCC,inactive: 0.875
11,COc1cc(C2NCCC3(OCCO3)C2(C)C)cc(OC)c1OC (configuration not stated),inactive: -0.094
12,Cc1ccc(NCCc2c([N+](=O)[O-])cc([N+](=O)[O-])cc2[N+](=O)[O-])cc1,inactive: 0.648
13,Cc1cccc(OCC(=O)OC2CN3CCC2CC3)c1 (configuration not stated),inactive: 0.328
14,O=[As](O)(O)c1cccnc1,inactive: -0.249
15,COc1cc(C(=O)NCC2(N3CCOCC3)CCCCC2)cc(Cl)c1OC(C)C,inactive: -0.435
16,Nc1ccccc1[As](=O)(O)c1ccccc1,inactive: 0.0232
17,O=P(Nc1nccs1)(Oc1ccccc1)Oc1ccccc1,inactive: 0.0459
18,Nc1cccc([As](=O)(O)c2ccccc2)c1,inactive: -0.292
19,Cc1ccc(OCC(=O)OC2CN3CCC2CC3)cc1 (configuration not stated),inactive: -0.0693

row,SMILES,B-score
1,O=P1(Nc2ccc(Br)cn2)COc2ccccc2OC1,inactive: -1.39
2,O=P1(Nc2ncccn2)COc2ccccc2OC1,inactive: 1.01
3,CN(C)C1(CNC(=O)c2ccc(S(C)(=O)=O)cc2)CCCCC1,inactive: -0.324
4,CC1CCC(C(C)C)C(OP(=O)(Nc2ccccn2)c2ccccc2)C1 (configuration not stated),inactive: -0.876
5,Clc1n[nH]nc1-c1nn[nH][15n]1,inactive: 0.985
6,O=P1(Nc2ccccn2)COc2ccccc2OC1,inactive: 0.562
7,CCC(C)N(CC(C)C)C(=S)SC(NC(C)=O)C(Cl)(Cl)Cl (configuration not stated),inactive: 0.272
8,CCOC(=O)c1ccc(NC(=O)C(C)(CCl)SC)cc1 (configuration not stated),inactive: 0.5
9,Cc1cc(SC(NC=O)C(Cl)(Cl)Cl)ncn1 (configuration not stated),inactive: 0.0247
10,O=P(Nc1ccccn1)(c1cccc2ccccc12)c1cccc2ccccc12,inactive: 0.0382
11,O=[N+]([O-])c1cc([N+](=O)[O-])c(-c2ccn[nH]2)s1,inactive: -1.35
12,CC(C)NC(=O)NP(=O)(Oc1ccccc1)Oc1ccccc1,inactive: -1.01
13,O=[As](O)(c1ccc(O)cc1)c1ccccc1O,inactive: 0.208
14,COc1ccc(N/C(=N/P(=O)(N2CCOCC2)N2CCOCC2)N2CCOCC2)cc1,inactive: -0.0824
15,COc1cc(I)ccc1[As](=O)(O)O,inactive: 0.411
16,COc1ccc2nc(NP(=O)(c3ccccc3)c3ccccc3)sc2c1,inactive: -0.087
17,Cc1c2c(nc3ccccc13)SC(C(Cl)Cl)C2 (configuration not stated),inactive: -2.31
18,Cc1cc(=O)[nH]c(N[N+](=O)[O-])n1,inactive: 0.072
